Results published in PMC5447756, “Identification of Epigallocatechin-3- Gallate as an Inhibitor of Phosphoglycerate Mutase 1” (Frontiers in Pharmacology, 2017).

By UniProt entry, the sequences of proteins in these tests, tags left out. Where a name states a change or a piece, a line headed by the entry shows the natural chain unless it says otherwise.
UniProt P18669: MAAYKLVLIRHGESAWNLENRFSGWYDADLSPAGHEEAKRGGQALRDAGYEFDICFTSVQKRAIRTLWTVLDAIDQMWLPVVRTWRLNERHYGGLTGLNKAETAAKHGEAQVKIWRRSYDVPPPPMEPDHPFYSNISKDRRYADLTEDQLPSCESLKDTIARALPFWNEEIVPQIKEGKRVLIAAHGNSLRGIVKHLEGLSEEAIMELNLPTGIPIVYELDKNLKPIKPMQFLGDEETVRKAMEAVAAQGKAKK

Target: T1, PGAM1 (Homo sapiens, UniProt P18669)
T1 construct: His; made in house; host or cells: E. coli BL21
Test: PGAM1 coupled enzymatic assay (PKM1/enolase, Kinase-Glo)
Format: biochemical
Details: ratio of IC50 values

In the case of (-)-Epigallocatechin-3-gallate [EGCG], the “potency toward PGAM1 relative to PGMI-004A” value is reported as “over 30 times”.
